Data from PubChem BioAssay AID504845 (National Center for Advancing Translational Sciences (NCATS), 2011).
Only a part is listed here, and it is no random draw. Inconclusive results are not listed. Active and inactive are the calls of the source. Calls come from the whole dose curve; as a rule, active = well fitted inhibition curve with a large enough effect; inconclusive = small, poorly fitted or top-dose-only effect; inactive = no such curve, though single readings can be large or run the other way.

The chains behind the UniProt entries cited, without tags or fusion partners. Where a name states a change or a piece, a line headed by the entry shows the natural chain unless it says otherwise.
UniProt P49798: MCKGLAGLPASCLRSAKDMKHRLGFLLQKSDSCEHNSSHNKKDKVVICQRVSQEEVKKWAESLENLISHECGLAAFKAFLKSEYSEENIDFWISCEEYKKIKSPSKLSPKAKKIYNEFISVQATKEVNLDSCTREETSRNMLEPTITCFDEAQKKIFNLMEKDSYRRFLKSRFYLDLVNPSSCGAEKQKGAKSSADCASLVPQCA

Target: Regulator of G-protein signaling 4 (Homo sapiens) (UniProt P49798)
Test: Inhibitors of Regulator of G Protein Signaling (RGS) 4: qHTS; note: nearly all actives have a fitted effect of over 75% in size
Details: Transcreener GDP fluorescence polarization, RGS4-accelerated GTP hydrolysis
[1] = at 114 µM (top of the series) unless noted
% is set by controls: 0 for no effect and ±100 for the full control effect.

| SMILES | activity change, negative = inhibition [1] | activity change, negative = inhibition (at 114 µM (top of the series)) |
| --- | --- | --- |
| CC(=O)Nc1ccc([As](=O)(O)O)c(O)c1 | inactive: -26.5% |  |
| CC(=O)Nc1ccc(Oc2c([N+](=O)[O-])cc([N+](=O)[O-])cc2[N+](=O)[O-])cc1 | inactive: -7.37% |  |
| Cc1ccccc1CN(C)C(=O)COC(=O)C(O)(c1ccccc1)c1ccccc1 | inactive: -21.9% |  |
| C[C@H]1OP(=O)(Oc2ccccc2)C[C@@H]2O[C@@H]21 (stereo partly drawn) | inactive: -7.95% |  |
| C[C@@H]1C=CCP(=O)(Oc2ccccc2)O1 (stereo partly drawn) | inactive: -4.02% |  |
| CC(=O)c1ccc(N2CC2c2ccncc2)cc1 (stereo not drawn) | inactive: -5.83% |  |
| N#C/C(=C\c1ccc(N(CCBr)CCBr)cc1)C(N)=O | inactive: -28.4% |  |
| COC(=O)C1(C)COP(=O)(NCc2ccccc2)OC1 (stereo not drawn) | inactive: 2.62% |  |
| CC(C)(C)C(=O)NC(Sc1ccccc1)C(Cl)(Cl)Cl (stereo not drawn) | inactive: 19.2% |  |
| CCc1cc(O)c([N+](=O)[O-])c(C)c1[N+](=O)[O-] | inactive: 6.27% |  |
| O=P1(Nc2nc3ccc(Cl)cc3s2)COc2ccccc2O1 (stereo not drawn) | inactive: -3.99% [at 11.4 µM] |  |
| CCOc1ccc(C2=NCC(CBr)S2)cc1 (stereo not drawn) | inactive: 19.7% |  |
| CC(NC(=O)COC(=O)C(O)(c1ccccc1)c1ccccc1)c1ccccc1 (stereo not drawn) | inactive: -29.3% |  |
| Cc1ccccc1OP(=O)(Nc1ccccn1)Oc1ccccc1C | inactive: -1.78% |  |
| O=c1c2cc([N+](=O)[O-])ccc2[nH]c2c([N+](=O)[O-])cc([N+](=O)[O-])cc12 | inactive: -17.5% |  |
| CN(C)C(=O)Oc1noc2ccccc12 | inactive: -12.7% |  |
| O=C(OC1CN2CCC1CC2)c1ccccc1 (stereo not drawn) | inactive: 15.4% |  |
| CCC(=O)N1C2C3N(C(=O)CC)C1C1N(C(=O)CC)C(C(N1C(=O)CC)N3C(=O)CC)N2C(=O)CC | inactive: 10.6% |  |
| COC(=O)c1cc2c(s1)N=C(c1ccccc1)N(C)P2(=O)N1CCOCC1 (stereo not drawn) | inactive: 10.7% |  |
| Cc1ccc(OP(=O)(Nc2ccccn2)Oc2ccc(C)cc2)cc1 | inactive: -50.1% |  |
| CC(=O)NC(SC(=S)N(CC(C)C)CC(C)C)C(Cl)(Cl)Cl (stereo not drawn) | inactive: 10.2% |  |

| SMILES | activity change, negative = inhibition [1] | activity change, negative = inhibition (at 114 µM (top of the series)) |
| --- | --- | --- |
| O=P1(N(CCCl)CCCl)OCCC2CCCCN21 (stereo not drawn) | inactive: 6.15% |  |
| c1ccc(-c2nn[nH]n2)c(-c2nn[nH]n2)c1 | inactive: 6.55% |  |
| Cc1ccc(NP(=O)(Oc2cccc(C)c2)Oc2cccc(C)c2)nc1 | inactive: -6.94% |  |
| O=C(NC1CCS(=O)(=O)C1)NP(=S)(Oc1ccccc1)Oc1ccccc1 (stereo not drawn) | inactive: -9.27% |  |
| CCNC(=S)/N=C(\N)N[N+](=O)[O-] | inactive: 11.6% |  |
| O=C(OC1CN2CCC1CC2)c1cccc(Cl)c1 (stereo not drawn) | inactive: -0.11% |  |
| C(Cc1nn[nH]n1)Cc1nn[nH]n1 | inactive: 27.3% |  |
| Nc1ccc([As](=O)(O)c2ccc([N+](=O)[O-])cc2)cc1 | inactive: -8.13% |  |
| O=[As](O)(c1ccccc1)c1ccc(O)cc1 | inactive: 12.7% |  |
| O=[N+]([O-])c1ncn(CCn2cnc([N+](=O)[O-])n2)n1 | inactive: 1.69% [at 11.4 µM] |  |
| CC(=O)NC(SC(=S)N(C)C)C(Cl)(Cl)Cl (stereo not drawn) | inactive: 2.46% |  |
| O=[N+]([O-])c1ccc(O)c(/C=N/Nc2ccc([N+](=O)[O-])cc2[N+](=O)[O-])c1 | inactive: -0.527% |  |
| O=P(Nc1nc2ccccc2s1)(c1ccccc1)c1ccccc1 | inactive: -5.88% |  |
| C[C@H]1OP(=O)(Oc2ccccc2)[C@H](O)[C@H](O)[C@H]1N=[N+]=[N-] (stereo partly drawn) | inactive: 7.44% |  |
| CN(C)C1(CNC(=O)c2ccc(Cl)c(S(N)(=O)=O)c2)CCCCC1 | inactive: -17.5% |  |
| O=P(Nc1ccccn1)(c1ccc(Br)cc1)c1ccc(Br)cc1 | inactive: -16.8% |  |
| COc1ccc(N)c([N+](=O)[O-])c1[N+](=O)[O-] | inactive: -1.46% |  |
| c1nnnn1CCn1cnnn1 | inactive: 2.39% |  |
| O=P(Nc1nccs1)(c1ccccc1)c1ccccc1 | inactive: 18.7% |  |
| CC(C)C(=O)NC(Sc1ccccc1)C(Cl)(Cl)Cl (stereo not drawn) | inactive: -6.06% |  |
| CC1CCN(C(=O)Oc2c(Cl)cc(Cl)c3cccnc23)CC1 | inactive: -11.6% |  |

| SMILES | activity change, negative = inhibition [1] | activity change, negative = inhibition (at 114 µM (top of the series)) |
| --- | --- | --- |
| CC(C)=N/N=C(\N)N[N+](=O)[O-] | inactive: 9.75% |  |
| CN(C)C(=O)OCCc1n(C)cc[n+]1C | inactive: -11.2% |  |
| CCN(/C(=N/P(=O)(N1CCOCC1)N1CCOCC1)N1CCOCC1)c1ccc(OC)cc1 | inactive: 2.63% |  |
| Nc1ccc([As](=O)(O)c2ccc(N)cc2)cc1 | inactive: 14.5% |  |
| Cc1ccc(NP(=O)(Oc2ccccc2)Oc2ccccc2)nc1 | inactive: 4.29% |  |
| O=[N+]([O-])c1cc([N+](=O)[O-])c(CCNc2ccccc2)c([N+](=O)[O-])c1 | inactive: -20.9% |  |
| CC(=O)N1C2C3N(C(C)=O)C1C1N(C(C)=O)C(C(N1C(C)=O)N3C(C)=O)N2C(C)=O | inactive: -12.1% |  |
| O=[N+]([O-])c1cccc2n[nH]nc12 | inactive: 0.332% |  |
| COc1ccc(C2=NCC(CBr)S2)cc1 (stereo not drawn) | inactive: -50.9% |  |
| O=C(O)CNc1ccc([As](=O)(O)O)cc1 | inactive: 27% |  |
| COC(=O)C1(C)COP(=O)(Nc2ccccc2)OC1 (stereo not drawn) | inactive: -2.52% |  |
| O=[N+]([O-])c1cccc(NC2=NCC(CBr)S2)c1 (stereo not drawn) | inactive: -1.46% |  |
| O=[N+]([O-])c1ncn(CCn2ncnc2[N+](=O)[O-])n1 | inactive: 6.14% [at 56.9 µM] |  |
| O=P(/N=c1/nc(-c2ccccc2)n(-c2ccccc2)s1)(Nc1ccccc1)Nc1ccccc1 | inactive: -57.2% |  |
| O=C(Nc1cc([As](=O)(O)O)ccc1O)c1ccccc1 | inactive: -11% |  |
| O=P1(N(CCCl)CCCl)OCCCS1 (stereo not drawn) | inactive: 4.33% |  |
| Nc1cccc2ccc([As](=O)(O)O)cc12 | inactive: -37.1% |  |
| CCN(N=Nc1nonc1N)c1nonc1N | inactive: -2.36% |  |
| CCOP(=O)(Nc1ccccc1)OCC | inactive: -8.18% |  |
| CN(C(=O)Cc1ccc(Cl)c(Cl)c1)[C@H]1CCCC[C@@H]1N1CCCC1 |  | inactive: -13% |
| Cc1ccc(NP(=O)(Oc2ccccc2F)Oc2ccccc2F)nc1 | inactive: 24.5% |  |
